Measurements published in US20240009137A1, “ORAL THERAPEUTIC DELIVERY” (ROYAL MELBOURNE INSTITUTE OF TECHNOLOGY, priority 2020, published 2024).

Assay: Human coagulation factor X in blood plasma (ELISA) after SC injection or oral capsule
Type: in vivo, Sprague Dawley rats
Method: Four male Sprague Dawley rats were used as controls. Each rat was anaesthetised with isoflurane followed by preparation of the saphenous vein. The rats were given 0.5 mg/kg of human coagulation factor X via SC injection, immediately following this they were placed on a heat-mat until they regained consciousness, before being housed in pairs in boxes. Blood collection (150 μl) was taken via the saphenous vein at 0, 30-, 70-, 120-,180-, 240- and 360-mins post-injection. The blood concentration of the protein in the blood was tested using the relevant ELISA kit for human coagulation factor X.
Eight male Sprague Dawley rats were used. Each rat was anaesthetised with isoflurane followed by preparation of the saphenous vein and the first blood collection (150 μl). An enteric capsule with a thick polymer coating of approximately 160 μm containing 0.5 mg/kg of the human coagulation factor X encapsulated in MO lipid cubic phase was then introduced via oral gavage into the rat stomach. Immediately following this they were placed on a heat-mat until they regained consciousness, before being housed in pairs. Blood collection (150 μl) was taken via the saphenous vein at 0, 35-, 50-, 120-,180-, 240- and 360-mins post-injection
All data are analysed on a Clariostar Plate Reader to determine concentration against a standard curve for the relevant drug.
Concentrations provided in FIGS. 10-13 are the measured concentration of the drug in the blood plasma (determined using specific Elisa kits) and are in units of ng/ml. The initial drug concentration measured at the 0 time point has been set to zero in each case and other data scaled relative to this.

[1] = oral enteric capsule vs SC, 0.5 mg/kg
[2] = oral enteric capsule, MO cubic phase, 0.5 mg/kg

human coagulation factor X: Human Coagulation Factor 10 (Resolving Images), given SC or in MO cubic phase within enteric capsule
time of maximum plasma concentration (SC injection 0.5 mg/kg): 30 min
maximum drug concentration in blood plasma (SC injection 0.5 mg/kg, range over four rats): 9 to 10 ng/mL
plasma concentration after sharp decrease from maximum (SC injection 0.5 mg/kg, over the subsequent 90 min after the peak): 1 ng/mL
maximum drug concentration in blood plasma (oral enteric capsule (approx. 160 μm coating), MO cubic phase, 0.5 mg/kg, range over rats): 3.7 to 5.2 ng/mL
maximum drug plasma concentration as % of that following SC injection [1]: 47%
overall bioavailability as % of that following SC injection [1]: 88.52%
time by which baseline drug concentrations are reached [2]: ≤ 300 min
time of maximum plasma concentration [2]: 50 min
